# Source: PubChem BioAssay AID1645888 (National Center for Advancing Translational Sciences (NCATS), 2021)
# The list shows a part of the results, in another mix than the full data. Inconclusive results are not listed. Activity calls are given as the source filed them. Calls come from the whole dose curve; as a rule, active = well fitted inhibition curve with a large enough effect; inconclusive = small, poorly fitted or top-dose-only effect; inactive = no such curve, though single readings can be large or run the other way.
# Biological target: Rap guanine nucleotide exchange factor 3 (Homo sapiens) (UniProt O95398)
# Assay: Counterscreen qHTS for antagonist of cAMP-regulated guanine nucleotide exchange factor 3 (EPAC1);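 note: fluorescence loss as bound BODIPY-GDP is released from Rap1B; % of control where 0% means no effect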
# Conditions: Rap1B-BODIPY-GDP nucleotide exchange, fluorescence; at 154 µM (top of the series)
# Text: Assay Provider (PI): Xiaodong Cheng Ph.D. The University of Texas Medical Branch, Houston, TX MLPCN Grant: NS066510 In multi-cellular eukaryotic organisms, the effects of cAMP are transduced by two ubiquitously-expressed intracellular cAMP receptors, the classic protein kinase A/cAMP-dependent protein kinase (PKA/cAPK) and the more recently discovered exchange protein directly activated by cAMP/cAMP-regulated guanine nucleotide exchange factor (EPAC/cAMP-GEF). Both PKA and EPAC are ubiquitously expressed in all tissues, and an increase in intracellular cAMP levels will lead to the activation of both PKA and EPAC. […] This qHTS will be used to screen the Molecular Libraries Small Molecule Repository (MLSMR) as a concentration-titration series using the NCGC unique quantitative screening (qHTS) platform to find activators for EPAC1. […] Activators are identified by monitoring the change in fluorescence signal as the exchanged free BODIPY-GDP has a reduced fluorescence compared to Rap1-bound BODIPY-GDP. […]
# EPAC1 Counterscreen PROTOCOL TABLE SEQUENCE No. (e.g., 1, 2, 3, etc.); […] […] Fluorescence. (Read 1), Ex/Em = 480 nm / 540 nm. […] Fluorescence. (Read 2), Ex/Em = 480 nm/ 540 nm. […] Fluorescence. (Read 3), Ex/Em = 480 nm / 540 nm. […] Fluorescence. (Read 4), Ex/Em = 480 nm / 540 nm. […]
row,SMILES,"activity change, negative = inhibition"
1,CCCCn1nnnc1C(c1cc2ccccc2o1)N1CCC(n2c(=O)[nH]c3ccccc32)CC1 (configuration not stated),inactive: -9.69%
2,CCC(c1nnnn1C(C)(C)C)N1CCC(n2c(=O)[nH]c3ccccc32)CC1 (configuration not stated),inactive: 1.12%
